From patent publication EP2459571B1, “NITROIMIDAZOOXAZINES AND THEIR USES IN ANTI-[…]” (priority 2009, dated 2011)

Key:
[1] = Stability to human liver microsomes; assay type: in vitro ADME; details: pH 7.4, 37 °C, 0.5 mg/mL protein, NADPH regenerating system, 60 min
[2] = Stability to mouse liver microsomes; assay type: in vitro ADME, CD-1 mouse; details: pH 7.4, 37 °C, 0.5 mg/mL protein, NADPH regenerating system, 60 min

O=[N+]([O-])c1cn2c(n1)OC[C@@H](OCc1ccc(C#Cc3ccc(OC(F)(F)F)cc3)cn1)C2 [compound 18, (6S)-2-Nitro-6-[(5-{[4-(trifluoromethoxy)phenyl]ethynyl}-2-pyridinyl)methoxy]-6,7-dihydro-5H-imidazo[2,1-b][1,3]oxazine]
remaining at 1 h, 1 µM [1]: 98%
remaining at 1 h, 1 µM [2]: 97%
